Experiment: Example 7: amylin and PYY(3-36) in DIO rats, body weight and body composition
Assay type: in vivo, rat
Experimental: PYY(3-36) was administered by mini-pump at a range of doses (100, 200, 400, 800, 1000 μg/kg/day). Amylin 100 μg/kg/day (dissolved in 50% DMSO sterile water), PYY(3-36) (dissolved in 50% DMSO sterile water) or vehicle was administered by mini-pump. Food intake and body weight was recorded daily. Body composition was measured prior to and after drug treatment using NMR (Echo Medical Systems, Houston, Tex.). For body composition measurements, rats were briefly placed (˜1 min) in a well-ventilated plexiglass tube that was then inserted into a specialized rodent NMR machine. Rats were scanned prior to pump implantation and on the final day of the experiment. This enabled the calculation of changes in actual grams of fat and dry lean tissue (e.g., grams of body fat after treatment−grams of body fat at baseline=change in grams of body fat) and changes in % body composition for fat and dry lean tissue (e.g., % body fat after treatment−% body fat at baseline=change in % body fat).

PYY(3-36)
changes in body fat (fat mass loss) (after two weeks, FIG. 16B): Increasing amount of fat mass loss
vehicle-corrected decrease in percent body weight (two weeks, PYY(3-36) 1000 μg/kg/day, amylin 100 μg/kg/day, mini-pump, FIG. 16A): ~9%
